We go through 8 compounds from patent US11332463B2, “Spiropiperidine allosteric modulators of nicotinic acetylcholine receptors” (Merck Sharp & Dohme Corp., priority 2018, dated 2022).

Amino acid sequences for entries named in this document (tags omitted). Residues count along the entry.
UniProt P36544, 23-502 limits assumed: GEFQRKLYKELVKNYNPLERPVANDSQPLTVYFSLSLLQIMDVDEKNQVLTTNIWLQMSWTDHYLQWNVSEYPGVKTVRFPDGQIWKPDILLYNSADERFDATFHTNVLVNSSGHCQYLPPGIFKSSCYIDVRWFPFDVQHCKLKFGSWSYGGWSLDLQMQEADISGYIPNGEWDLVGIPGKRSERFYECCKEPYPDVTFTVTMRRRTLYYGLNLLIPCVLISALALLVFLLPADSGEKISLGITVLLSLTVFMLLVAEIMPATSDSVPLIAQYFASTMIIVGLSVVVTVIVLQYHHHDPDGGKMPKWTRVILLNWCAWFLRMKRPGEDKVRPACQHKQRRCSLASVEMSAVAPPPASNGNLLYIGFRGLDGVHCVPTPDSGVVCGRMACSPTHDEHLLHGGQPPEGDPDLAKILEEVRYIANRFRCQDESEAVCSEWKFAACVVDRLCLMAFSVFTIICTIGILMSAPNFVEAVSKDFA

This experiment concerns the target human α7 nicotinic acetylcholine receptor (HEK cell line stably expressing human RIC-3 and human α7) (Homo sapiens, UniProt P36544). Nature of the experiment: Automated patch-clamp electrophysiology functional assay (Assay A), IonFlux HT, whole-cell population patch. A general note: Patch clamp records ionic current or voltage across a cell membrane.
Where [1] appears, read: read-out: α7 nAChR EC50, automated patch-clamp electrophysiology functional assay (Assay A).
Where [2] appears, read: read-out: α7 nAChR Potency, HEK cells expressing human α7/RIC-3, test compound with or without 40 μM acetylcholine, holding potential −60 mV, room temperature.

pEC50: −log10 of the molar value. Read-outs that look alike come from different tables or passages of the source. Where only a bound is given, the exact number is not on record here.

Take `NS(=O)(=O)N1CCC2(CC1)[C@H](c1nc(-c3ccc(F)cc3F)no1)C2(F)F`: the pEC50 reads like this: under setting [1], 6.77; under setting [2], 6.30 to 7.00.

For `NS(=O)(=O)N1CCC2(CC1)C[C@H]2c1noc(-c2ccc(C(F)(F)F)cc2)n1`, the pEC50 is 6.02 under setting [1] and 5.30 to 6.30 under setting [2].

`CC(C)(O)c1ccc(-c2noc([C@@H]3C(F)(F)C34CCN(S(N)(=O)=O)CC4)n2)cc1`: the pEC50 under setting [1] was 5.92 and the pEC50 under setting [2] is 5.30 to 6.30.

For the compound `NS(=O)(=O)N1CCC2(C(F)C1)C(c1nc(-c3conc3C3CC3)no1)C2(F)F` (stereo not shown), the pEC50 was 6.80 under setting [1] and 6.30 to 7.00 under setting [2].

For `COc1ccc(Cl)cc1-c1nc([C@@H]2CC23CCN(S(N)(=O)=O)CC3)no1`, the pEC50 under setting [1] is 7.23 and the pEC50 under setting [2] was over 7.00.

Take `NS(=O)(=O)N1CCC2(CC1)C[C@H]2c1nc(-c2cccc(OC(F)F)c2)no1`: the pEC50 runs as follows: under setting [1], 6.12; under setting [2], 5.30 to 6.30.

On to `NS(=O)(=O)N1CCC2(CC1)[C@H](c1nc(-c3cccc(F)c3)no1)C2(F)F`, for which the pEC50 is, setting by setting: under setting [1], 6.85; under setting [2], 6.30 to 7.00.

Turning to `NS(=O)(=O)N1CCC2(CC1)[C@H](c1nc(-c3ccc(F)cc3C(F)(F)F)no1)C2(F)F`, the pEC50 under setting [1] is 6.72 and the pEC50 under setting [2] is 6.30 to 7.00.
